The values that follow come from PMC10095357, “Inhibition of Soluble Epoxide Hydrolase Activity by Components of Glycyrrhiza uralensis” (International Journal of Molecular Sciences, 2023).

Sequences of proteins named here, by UniProt entry; tags and fusion partners are left off.
UniProt P34913, whole entry: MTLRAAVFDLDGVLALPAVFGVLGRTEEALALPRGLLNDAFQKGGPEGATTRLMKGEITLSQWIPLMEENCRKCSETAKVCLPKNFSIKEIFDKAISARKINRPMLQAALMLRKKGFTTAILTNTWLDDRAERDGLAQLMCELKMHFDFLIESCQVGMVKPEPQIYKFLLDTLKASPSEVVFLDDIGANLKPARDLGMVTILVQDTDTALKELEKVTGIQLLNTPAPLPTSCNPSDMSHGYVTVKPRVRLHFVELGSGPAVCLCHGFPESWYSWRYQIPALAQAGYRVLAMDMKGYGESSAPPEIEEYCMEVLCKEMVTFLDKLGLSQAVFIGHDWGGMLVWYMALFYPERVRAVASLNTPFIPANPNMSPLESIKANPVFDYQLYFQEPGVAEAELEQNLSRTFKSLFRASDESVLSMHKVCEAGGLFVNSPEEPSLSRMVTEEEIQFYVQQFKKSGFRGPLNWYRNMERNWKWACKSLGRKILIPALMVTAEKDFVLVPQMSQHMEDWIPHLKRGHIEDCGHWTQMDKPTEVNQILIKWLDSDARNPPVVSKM

Experiment [1] addresses T1, Human recombinant sEH (Homo sapiens, UniProt P34913).
T1 construct: purchased Cayman Chemical (Ann Arbor, MI, USA) 10011669
As to the kind of experiment: sEH assay (fluorescent substrate hydrolysis, inhibitory activity and IC50). The format is biochemical. Conditions: sEH inhibition.

Experiment [2] has as its target T1, Human recombinant sEH. As to the kind of experiment: sEH enzyme kinetics (Lineweaver–Burk and Dixon plots). Format: biochemical. Conditions: Dixon plot analysis.

One may read the IC50 as the concentration needed to halve the response being measured. Broadly, the Ki is the equilibrium dissociation constant of an inhibitor or competing ligand from its target. isoliquiritin apioside [Compound 6]: in experiment [1], the IC50 came out at 22.2 ± 0.1 µM. Besides, the Ki in experiment [2] stood at 32.7 µM.

On to liquiritin apioside [Compound 3], for which the IC50 in experiment [1] was found to be 72.3 ± 0.5 µM. Besides, the Ki in experiment [2] was found to be 89.1 µM.
